Experimental data as given in patent US4756904A, “Method of imaging the heart using copper-64 citrate” (Oak Ridge Associated Universities, Inc., priority 1986, dated 1988).
Read-outs that look alike come from different tables or passages of the source.

Columns and labels:
[1] = tested on: myocardium; details: dog
Method: (§1) Sixteen closed-chest studies were performed in 6 healthy, adult mongrel dogs of both sexes weighing 15 to 30 kg. The dogs were maintained on a standard laboratory diet which was discontinued 24 hours prior to study. The animals were anesthetized using a combination of xylazine and sodium pentobarbital. Transmission cross-sectional scans of the chest area were performed on each dog with an ECAT II scanner using a ^68 Ge ring source with medium resolution filters and standard shadow shields. Measured attenuation coefficients were used for reconstructing the emission tomographs. […] Serial scans of the heart from base to apex in 10-15 mm steps were made starting 3-5 minutes after injection. After each series was completed, the ECAT II bed was returned to the original position and the dogs were rescanned. This procedure was repeated over a 2 to 4 hour period. Each set of scans required approximately 1 hour for 6 slices, so that 2 to 4 sets of images were obtained in each study. Sequential images were also obtained through a 20-mm section of the heart over a 2-hour period. Additional images from 1 dog were obtained using the new high-resolution ECAT III scanner. […] The animals were injected through a cannula or catheter in the leg and heparanized venous blood samples were removed from the opposite side. Known aliquots of whole blood, plasma, and erythrocytes were assayed in a well-type scintillation counter to determine the ^64 Cu levels present in the different components.

[2] = dog, intravenous
Method: as §1

[3] = tested on: plasma albumin; details: intravenous; cited from earlier work
[4] = tested on: heart tissue

## copper-64 citrate [^64 Cu citrate]
[1]; ECAT II and III scans
  ratios of heart to blood and other surrounding tissues: sufficiently high ratios of heart to blood and other surrounding tissues necessary for imaging
[1]; scans and graphs
  retention of ^64 Cu: retained in the heart tissue rather than the blood
[2]
  presence in blood: present in blood at low concentrations
[2]; after 1 hour
  total ^64 Cu in the blood: < 6%
[2]; within the first 30 minutes after injection
  total ^64 Cu in the blood: 10 % of the injected dose
[3]
  binding in plasma: bound primarily to plasma albumin
[4]; 2 dogs sacrificed, 15-mm heart sections
  concentration of ^64 Cu in heart tissue: there was a concentration of the ^64 Cu in the heart tissue
[4]; compared with values reported for ^201 Tl, ^52 Mn, ^81 Rb
  myocardial tissue concentration compared with ^201 Tl, ^52 Mn or ^81 Rb: not as high as those reported using ^201 Tl, ^52 Mn, or ^81 Rb
